Key:
[1] = treated test animals; e.g., provoking marked hyperlactemia followed by hyperglycemia; cited from earlier work
[2] = cited from earlier work
[3] = Adsorption onto glass container in liquid form; assay type: physicochemical
Excerpt: However, with regard to amylin, amylin agonist, or amylin antagonist which do have such a tendency when in liquid form, a surfactant should be used in their formulation. These formulations may then be lyophilized. Surfactants frequently cause denaturation of protein, both of hydrophobic disruption and by salt bridge separation. Relatively low concentrations of surfactant may exert a potent denaturing activity, because of the strong interactions between surfactant moieties and the reactive sites on proteins. However, judicious use of this interaction can stabilize proteins against interfacial or surface denaturation. Surfactants which could further stabilize the peptide may optionally be present in the range of about 0.001 to 0.3% (w/v) of the total formulation and include polysorbate 80 (i.e., polyoxyethylene(20) sorbitan monooleate), CHAPS® (i.e., 3-[(3-cholamidopropyl)dimethylammonio] 1-propanesulfonate), Brij® (e.g., Brij 35, which is (polyoxyethylene (23) lauryl ether), poloxamer, or another non-ionic surfactant.

CC[C@H](C)[C@H](NC(=O)[C@@H]1CCCN1C(=O)CNC(=O)[C@H](Cc1ccccc1)NC(=O)[C@H](CC(N)=O)NC(=O)[C@H](CC(N)=O)NC(=O)[C@H](CO)NC(=O)[C@H](CO)NC(=O)[C@H](Cc1c[nH]cn1)NC(=O)[C@@H](NC(=O)[C@H](CC(C)C)NC(=O)[C@H](Cc1ccccc1)NC(=O)[C@H](CC(N)=O)NC(=O)[C@H](C)NC(=O)[C@H](CC(C)C)NC(=O)[C@H](CCCNC(=N)N)NC(=O)[C@H](CCC(N)=O)NC(=O)[C@@H](NC(=O)[C@H](C)NC(=O)[C@@H]1CSSC[C@H](NC(=O)[C@@H](N)CCCCN)C(=O)N[C@@H](CC(N)=O)C(=O)N[C@@H]([C@@H](C)O)C(=O)N[C@@H](C)C(=O)N[C@@H]([C@@H](C)O)C(=O)N1)[C@@H](C)O)C(C)C)C(=O)N[C@@H](CC(C)C)C(=O)N1CCC[C@H]1C(=O)N1CCC[C@H]1C(=O)N[C@H](C(=O)N[C@@H](CC(N)=O)C(=O)N[C@H](C(=O)NCC(=O)N[C@@H](CO)C(=O)N[C@@H](CC(N)=O)C(=O)N[C@H](C(=O)N[C@@H](Cc1ccc(O)cc1)C(N)=O)[C@@H](C)O)C(C)C)[C@@H](C)O [pramlintide, ^25,28,29Pro-h-amylin]
amylin activity in vivo [1]: show amylin activity in vivo | solubility characteristics compared to human amylin [2]: more desirable | tendency to adsorb onto the glass in a glass container [3]: does not have a tendency to adsorb onto the glass

Source: patent publication US20070275877A1, “Methods for Treating or Ameliorating Ghrelin-Associated Diseases and Disorders” (AMYLIN PHARMACEUTICALS, INC., priority 2003, published 2007)
